Experimental data as given in PubChem BioAssay AID720504 (National Center for Advancing Translational Sciences (NCATS), 2013).
The entries are a selection whose mix differs from that of the whole data set. Inconclusive results are not listed. Some structures show a salt or complex split into parts, the way the source records it. Activity calls are given as the source filed them. The call rests on the fitted dose curve; in most records, active means well fitted inhibition curve with a large enough effect; inconclusive means small, poorly fitted or top-dose-only effect; inactive means flat fitted curve, though single readings scatter.

Protein sequences, listed by entry. Tags and fused reporters are not part of them.
UniProt P53350, whole entry: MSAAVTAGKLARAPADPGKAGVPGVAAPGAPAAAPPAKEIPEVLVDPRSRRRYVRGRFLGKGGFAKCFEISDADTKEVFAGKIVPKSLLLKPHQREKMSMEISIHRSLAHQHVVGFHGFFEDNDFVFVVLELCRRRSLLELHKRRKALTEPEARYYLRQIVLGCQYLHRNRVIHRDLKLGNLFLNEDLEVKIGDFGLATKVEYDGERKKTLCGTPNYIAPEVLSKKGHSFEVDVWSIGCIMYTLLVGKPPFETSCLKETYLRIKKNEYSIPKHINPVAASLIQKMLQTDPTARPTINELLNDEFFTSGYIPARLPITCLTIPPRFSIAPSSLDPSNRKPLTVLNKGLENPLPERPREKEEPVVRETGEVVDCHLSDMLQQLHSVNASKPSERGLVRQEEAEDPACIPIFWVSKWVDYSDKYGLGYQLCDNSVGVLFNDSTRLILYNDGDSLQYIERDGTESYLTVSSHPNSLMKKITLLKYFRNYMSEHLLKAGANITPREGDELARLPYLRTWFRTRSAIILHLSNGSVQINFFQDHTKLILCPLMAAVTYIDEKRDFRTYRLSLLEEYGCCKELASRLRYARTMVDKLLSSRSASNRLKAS

Each compound was assayed against Serine/threonine-protein kinase PLK1 (Homo sapiens) (UniProt P53350) (assay: qHTS for Inhibitors of PLK1-PDB (polo-like kinase 1 - polo-box domain): Primary Screen). Conditions: Plk1 PBD binding of FITC phosphopeptide, fluorescence polarization.
Further: nearly all actives have a fitted effect of over 65% in size.
On the % scale 0 is the no-effect control and ±100 the full control effect; potency means the concentration at half of the fitted maximal effect.
Wherever max response, negative = inhibition is given: series mostly up to about 57 µM.

Row | SMILES | max response, negative = inhibition | Potency
1 | CN1CCN(CCOC(=O)C(O)(c2ccccc2)c2ccccc2)CC1 | inactive: -6.8% | –
2 | CC(C)(C)n1nnnc1C(c1ccccc1OC(F)(F)F)N1CCC(n2c(=O)[nH]c3ccccc32)CC1 (centres undefined) | inactive: -6.98% | –
3 | O=C(NCC1(N2CCCCC2)CCCCC1)c1ccc(OC(F)F)cc1 | inactive: -1.15% | –
4 | CCN1CCC(Nc2ccc(Cl)cc2)CC1 | inactive: 5.6% | –
5 | N#CC1(Nc2ccccc2)CCN(CCc2ccccc2)CC1 | inactive: -3.52% | –
6 | O=c1[nH]c2ccccc2n1C1CCN(C(c2ccccc2OC(F)(F)F)c2nnnn2C2CCCC2)CC1 (centres undefined) | inactive: 4.64% | –
7 | O=C(NCC1(N2CCCCC2)CCCCC1)c1cccc([N+](=O)[O-])c1 | inactive: -10.6% | –
8 | CSc1ccc(C(=O)NCC2(N3CCOCC3)CCCCC2)cc1 | inactive: -14.4% | –
9 | O=C(OC1CN2CCC1CC2)c1ccc([N+](=O)[O-])cc1 (centres undefined) | inactive: 0.121% | –
10 | COc1ccc2c(c1O)-c1c(O)c(OC)cc3c1[C@H](C2)[N+](C)(C)CC3.O=[N+]([O-])c1cc([N+](=O)[O-])c([O-])c([N+](=O)[O-])c1[O-] | inactive: -3.36% | –
11 | O=C(NCC1(N2CCCCC2)CCCCC1)c1cncc(Br)c1 | inactive: -7.25% | –
12 | CN1CCC(Nc2cccc(F)c2)CC1 | inactive: 1.5% | –
13 | COc1ccc(C(c2nnnn2C2CCCC2)N2CCC(n3c(=O)[nH]c4ccccc43)CC2)cc1 (centres undefined) | inactive: 5% | –
14 | O=[N+]([O-])c1cc([N+](=O)[O-])c(Nc2ccc(Cl)cc2)c([N+](=O)[O-])c1 | inactive: -12.6% | –
15 | Cc1ccc(C(=O)NCC2(N(C)C)CCCCC2)o1 | inactive: 2.53% | –
16 | CCCOc1ccc(C(=O)NCC2(N(C)C)CCCCC2)cc1OC | inactive: -15.9% | –
17 | CCCCn1nnnc1C(c1ccccc1OC(F)(F)F)N1CCC(n2c(=O)[nH]c3ccccc32)CC1 (centres undefined) | inactive: 1.39% | –
18 | CC(C)c1ccc(NC2CCN(C(=O)OC(C)(C)C)CC2)cc1 | inactive: 1.77% | –
19 | COc1ccc(CN(CCCl)CCCl)cc1Cl | – | active: 21.2 µM
20 | CN(C)c1cccc(C(=O)NCC2(N3CCCCC3)CCCCC2)c1 | inactive: -0.416% | –

Row | SMILES | max response, negative = inhibition | Potency
21 | O=[N+]([O-])c1cc([N+](=O)[O-])c(OC2CCCCC2O)c([N+](=O)[O-])c1 (centres undefined) | inactive: -21.6% | –
22 | COc1cc(OC)c(C(=O)NCC2(N(C)C)CCCCC2)cc1OC | inactive: -16.7% | –
23 | CCC(c1nnnn1C(C)(C)C)N1CCC(n2c(=O)[nH]c3ccccc32)CC1 (centres undefined) | inactive: -1.3% | –
24 | O=C(NCC1(N2CCOCC2)CCCCC1)c1cc(F)c(F)cc1Cl | inactive: 2.21% | –
25 | CCCCn1nnnc1C(c1ccnc2ccccc12)N1CCC(n2c(=O)[nH]c3ccccc32)CC1 (centres undefined) | inactive: -7.76% | –
26 | O=c1[nH]c2ccccc2n1C1CCN(C(c2ccccc2OC(F)(F)F)c2nnnn2C2CCCCC2)CC1 (centres undefined) | inactive: 6.65% | –
27 | O=C(NCC1(N2CCCCC2)CCCCC1)c1ccc(Cl)nc1 | inactive: 2.26% | –
28 | Cc1cc(C)cc(N(C(=O)c2ccccc2)C2CCN(C(=O)OC(C)(C)C)CC2)c1 | inactive: -11.9% | –
29 | O=C(NCC1(N2CCOCC2)CCCCC1)c1cc2ccccc2o1 | inactive: -1.83% | –
30 | O=c1[nH]c2ccccc2n1C1CCN(C(c2cc3ccccc3o2)c2nnnn2C2CCCCC2)CC1 (centres undefined) | inactive: 2.87% | –
31 | O=C(OC1CN2CCC1CC2)C1c2ccccc2Oc2ccccc21 (centres undefined) | inactive: -0.185% | –
32 | O=C(NCC1(N2CCCCC2)CCCCC1)c1ccc(Cl)s1 | inactive: -3.81% | –
33 | N#CC1(Nc2ccccc2)CCN(Cc2ccccc2)CC1 | inactive: -20.7% | –
34 | COc1ccc(Cl)cc1C(=O)NCC1(N2CCOCC2)CCCCC1 | inactive: 6.35% | –
35 | CCOC(=O)N1CCC(Nc2ccc(OC)cc2)CC1 | inactive: -9.44% | –
36 | CCCCn1nnnc1C(c1ccc(OC)cc1)N1CCC(n2c(=O)[nH]c3ccccc32)CC1 (centres undefined) | inactive: -15.9% | –
37 | COc1ccc(C(=O)NCC2(N3CCCCC3)CCCCC2)cc1 | inactive: -6.57% | –
38 | CCC(c1nnnn1C1CCCC1)N1CCC(n2c(=O)[nH]c3ccccc32)CC1 (centres undefined) | inactive: 7.43% | –
39 | CC(C)(C)OC(=O)N1CCC(N(C(=O)c2ccccc2)c2ccc(F)cc2)CC1 | inactive: -3.07% | –
40 | COc1ccc(C(=O)NCC2(N3CCCCC3)CCCCC2)c(OC)c1OC | inactive: 0% | –

Row | SMILES | max response, negative = inhibition | Potency
41 | O=C(NCC1(N2CCCCC2)CCCCC1)c1ccc(=O)[nH]c1 | inactive: 0.493% | –
42 | CCCCn1nnnc1C(c1cccs1)N1CCC(n2c(=O)[nH]c3ccccc32)CC1 (centres undefined) | inactive: -14.8% | –
43 | O=C(NCC1(N2CCCCC2)CCCCC1)c1cccs1 | inactive: -5.03% | –
44 | CCCCn1nnnc1C(CC)N1CCC(n2c(=O)[nH]c3ccccc32)CC1 (centres undefined) | inactive: 3.96% | –
45 | CSc1ccccc1C(=O)NCC1(N2CCCCC2)CCCCC1 | inactive: -19.4% | –
46 | Cc1cccc(NC2(C#N)CCN(Cc3ccccc3)CC2)c1 | inactive: 3.59% | –
47 | O=c1[nH]c2ccccc2n1C1CCN(C(c2ccccc2)c2nnnn2C2CCCCC2)CC1 (centres undefined) | inactive: 3.97% | –
48 | COc1cc(C(=O)NCC2(N(C)C)CCCCC2)ccc1OC(F)F | inactive: -15.4% | –
49 | CCOC(=O)N1CCC(Nc2cccc(C)c2)CC1 | inactive: 5.8% | –
50 | O=c1[nH]c2ccccc2n1C1CCN(C(c2cccc3ccccc23)c2nnnn2C2CCCC2)CC1 (centres undefined) | inactive: -0.815% | –
51 | CC(C)(C)n1nnnc1C(c1ccccc1)N1CCC(n2c(=O)[nH]c3ccccc32)CC1 (centres undefined) | inactive: 1.1% | –
52 | O=C1CCN(Cc2ccccc2)CC1 | inactive: -3.86% | –
53 | CCOc1ccc(C)cc1CN(CCCl)CCCl | inactive: -28.7% | –
54 | O=C(NCC1(N2CCCCC2)CCCCC1)c1ccc(F)cc1 | inactive: -5.45% | –
55 | CCCCOc1ccc(C(=O)NCC2(N3CCOCC3)CCCCC2)cc1 | inactive: -11.6% | –
56 | CCCCn1nnnc1C(c1cc2ccccc2o1)N1CCC(n2c(=O)[nH]c3ccccc32)CC1 (centres undefined) | inactive: 0.795% | –
57 | O=P1(N(CCCl)CCCl)SCCCS1 | inactive: -0.641% | –
58 | CCOC(=O)N1CCC(Nc2ccc(F)cc2)CC1 | inactive: 0.899% | –
59 | COc1ccc(NC2CCN(CCc3ccccc3)CC2)c(OC)c1 | inactive: -5.9% | –
